Source: patent US20040248990A1, “Ketone peroxide compositions” (priority 2002, published 2004)

Assay: Solubility of Type 4 ketone peroxides in different solvents (Table I)
Conditions: at 20° C.

CC(C)CCC(C)(OO)OO
Solubility in isodecane (apolar isododecane): >45 g/100 g | Solubility in dimethyl-phthalate (polar dimethylphthalate): >30 g/100 g
